According to publication PMC13347698 (Analytical Chemistry, 2026):

Experiments:
wild-type 3CL^pro = wild-type 3CL^pro (Severe acute respiratory syndrome coronavirus 2, UniProt P0DTD1); assay type: binding, SARS-CoV-2
[1] = target: T1, native SARS-CoV-2 3CL^pro (Severe acute respiratory syndrome coronavirus 2, UniProt P0DTD1)
[2] = target: T1, native SARS-CoV-2 3CL^pro; remark: listed apart in the source

In the case of O=C(Nc1ccc(N(Cc2ccsc2)C(=O)Cn2nnc3ccccc32)cc1)C1CC1 [ML300], the “n (binding stoichiometry per 3CL^pro monomer)” value (wild-type 3CL^pro) is reported as 1.1 ± 0.1, the “binding kinetics (fast or slow-binding)” value [1] is reported as “fast” and the “covalent or noncovalent inhibition” value [1] is reported as “noncovalent”. For the same compound, the “inhibition at 0.80 μM inhibitor” value [1] was “no inhibition was detectable”, the “tight or nontight binding” value [1] was “nontight” and the inhibition mode [2] was “predominantly competitive”. It also gave a α parameter [2] of 17 ± 3.
